From PubChem BioAssay AID1510 (The Scripps Research Institute Molecular Screening Center, 2009)
Where “and” joins values, the source holds several entries; their conditions need not be identical. Equal entries are not always repeated. Only a part is listed here, and it is no random draw. Calls of active or inactive are those of the source. Cut-off read from the data, not from the text of the source: active = inhibition above about 29%; inactive = the rest.

Amino acid sequences for entries named in this document (tags omitted). A change or cut given only in a name is not applied to a line headed by its entry.
UniProt O95977: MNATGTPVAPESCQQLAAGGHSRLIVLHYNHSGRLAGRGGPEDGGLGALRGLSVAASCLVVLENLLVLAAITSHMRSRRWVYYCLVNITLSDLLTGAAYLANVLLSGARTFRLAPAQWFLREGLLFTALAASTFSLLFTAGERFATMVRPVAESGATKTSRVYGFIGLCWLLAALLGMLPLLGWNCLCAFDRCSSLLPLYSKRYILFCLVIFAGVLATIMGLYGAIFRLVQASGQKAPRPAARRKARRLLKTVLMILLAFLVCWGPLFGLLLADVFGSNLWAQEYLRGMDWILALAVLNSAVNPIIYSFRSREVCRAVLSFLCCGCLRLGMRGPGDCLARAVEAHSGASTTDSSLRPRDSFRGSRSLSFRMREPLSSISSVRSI

What follows are compounds tested against Sphingosine 1-phosphate receptor 4 (Homo sapiens) (UniProt O95977) (assay: S1P4 receptor antagonists, primary screen, cell-based (AID 1510;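 note: 0% = wells stimulated with agonist and 100% = vehicle wells without agonist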)). Settings: S1P4-expressing cells, antagonist mode, reporter read-out; at 4.98 µM; hits give high values.

SMILES	inhibition
COP1(=S)c2c(C)nn(CCC#N)c2N=C(c2ccc(F)cc2)N1C (configuration not stated)	inactive: -17.9%
O=C(COc1ccccc1)OC1CN2CCC1CC2 (configuration not stated)	inactive: -1.84%
CCOC(=O)c1ccc(NC(=O)C(C)(CCl)SC)cc1 (configuration not stated)	inactive: 8.69%
CCC(C)N(CC(C)C)C(=S)SC(NC(C)=O)C(Cl)(Cl)Cl (configuration not stated)	inactive: -2.16%
CCOC(=O)Nc1ccc([As](=O)(O)O)c(O)c1	inactive: -3.14%
Cc1cc(SC(NC(=O)c2ccccc2)C(Cl)(Cl)Cl)nc(C(C)C)n1 (configuration not stated)	inactive: -0.23%
CCOC(=O)Nc1cccc([As](=O)(O)O)c1	inactive: 3.95%
O=P(Nc1ccccn1)(c1cccc2ccccc12)c1cccc2ccccc12	inactive: 6.54%
Cc1cc(SC(NC=O)C(Cl)(Cl)Cl)ncn1 (configuration not stated)	inactive: 0.45%
O=[N+]([O-])c1ccc(Nc2ccc(Oc3ccc([N+](=O)[O-])cc3[N+](=O)[O-])cc2)c([N+](=O)[O-])c1	inactive: 6.96%
C[As](=O)(O)c1cccc(C(=O)O)c1	inactive: 0.28%
O=[As](O)(c1ccc(O)cc1)c1ccccc1O	inactive: -0.67%
Cc1ccc(OP(=O)(Nc2ccc([N+](=O)[O-])cn2)Oc2ccc(C)cc2)cc1	inactive: 4.95%
Cc1ccc2nc3c(c(C)c2c1)CC(C(Cl)Cl)S3 (configuration not stated)	inactive: 3.83%
ClCCSc1nnc(-c2cccnc2)o1	inactive: 6.44%
CC(C)c1ccc(OP(=O)(Nc2ccccn2)Oc2ccccc2F)cc1 (configuration not stated)	inactive: 1.22%
O=[N+]([O-])c1cc([N+](=O)[O-])c(-c2ccn[nH]2)s1	inactive: -14.1%
CC(C)NC(=O)NP(=O)(Oc1ccccc1)Oc1ccccc1	inactive: 2.08%
CCN(CC)C(=S)SC(NC=O)C(Cl)(Cl)Cl (configuration not stated)	inactive: -8.39%
Cc1c2c(nc3ccccc13)SC(C(Cl)Cl)C2 (configuration not stated)	inactive: -13.7%
Cc1cc(=O)[nH]c(N[N+](=O)[O-])n1	inactive: -2.44%
O=C(OC1CN2CCC1CC2)C12CC3CC(CC(C3)C1)C2 (configuration not stated)	inactive: -6.64%
COc1cc(I)ccc1[As](=O)(O)O	inactive: 1.69%
COc1ccc2nc(NP(=O)(c3ccccc3)c3ccccc3)sc2c1	inactive: -10.7%
COc1ccc(N/C(=N/P(=O)(N2CCOCC2)N2CCOCC2)N2CCOCC2)cc1	inactive: 20.1%

SMILES	inhibition
O=C(OC1CN2CCC1CC2)c1ccc(Cl)cc1 (configuration not stated)	inactive: 2.87%
O=[As](O)(O)c1cccnc1	inactive: 7.58%
COc1cc(C(=O)NCC2(N3CCOCC3)CCCCC2)cc(Cl)c1OC(C)C	inactive: 9.88%
Cc1cccc(OCC(=O)OC2CN3CCC2CC3)c1 (configuration not stated)	inactive: -1.14%
O=[As](O)(c1cccc(O)c1)c1cccc(O)c1	inactive: -5.26%
Nc1cccc2c([As](=O)(O)O)cccc12	inactive: -9.83%
Cc1ccc(NCCc2c([N+](=O)[O-])cc([N+](=O)[O-])cc2[N+](=O)[O-])cc1	inactive: -3.69%
CCCOP(=S)(Nc1nc(N)cc(=O)[nH]1)OCCC	inactive: 9.09%
CCOP(=O)(Nc1cccc2ccccc12)OCC	inactive: -8.43%
COc1cc(C2NCCC3(OCCO3)C2(C)C)cc(OC)c1OC (configuration not stated)	inactive: -20%
O=P(Nc1nccs1)(Oc1ccccc1)Oc1ccccc1	inactive: -3.71%
O=P(Nc1nccs1)(c1ccccc1)c1nc2ccccc2s1 (configuration not stated)	inactive: -0.6%
CCOP1(=S)c2c(C)nn(CCC#N)c2N=C(c2ccccc2F)N1C (configuration not stated)	inactive: 6.27%
CS(=O)(=O)c1cc([N+](=O)[O-])c2no[n+]([O-])c2c1	inactive: -5.3%
Nc1ccccc1[As](=O)(O)c1ccccc1	inactive: -2.97%
O=C(O)COc1ccc([As](=O)(O)O)cc1[N+](=O)[O-]	inactive: 5.63%
CCOP1(=S)c2c(C)nn(CCC#N)c2N=C(c2ccc(F)cc2)N1C (configuration not stated)	inactive: 1.55%
O=[N+]([O-])c1ccc2c(c1)nnn2O	inactive: 10.6%
CC1CCC(C(C)C)C(OP(=O)(Nc2ccccn2)c2ccccc2)C1 (configuration not stated)	inactive: -9.55%
Cc1nn(-c2ccccc2)c2c1P(=O)(N1CCOCC1)N(C)C(c1ccccc1)=N2 (configuration not stated)	inactive: -15.8%
CN(C)C1(CNC(=O)c2ccc(S(C)(=O)=O)cc2)CCCCC1	inactive: -18.8%
O=C(/C=C/c1ccccc1)OC1CN2CCC1CC2 (configuration not stated)	inactive: -7.21%
O=P1(Nc2ncccn2)COc2ccccc2OC1	inactive: -16%
Nc1cccc([As](=O)(O)c2ccccc2)c1	inactive: -3.27%
O=[As](O)(c1cccs1)c1cccs1	inactive: -9.9%

SMILES	inhibition
Cc1ccc(OCC(=O)OC2CN3CCC2CC3)cc1 (configuration not stated)	inactive: -19%
O=P1(Nc2ccc(Br)cn2)COc2ccccc2OC1	inactive: -3.66%
O=P1(Nc2ccccn2)COc2ccccc2OC1	inactive: 5.64%
CCOP(=O)(Nc1ccc(C)cn1)OCC	inactive: -9.78%
CC(C)(C)C(=O)NC(Sc1ncccn1)C(Cl)(Cl)Cl (configuration not stated)	inactive: -0.42%
Clc1n[nH]nc1-c1nn[nH][15n]1	inactive: -7%
CC(C)/C=N\N=C(\N)N[N+](=O)[O-]	inactive: -2.85%
CC1(CBr)Cn2c(nc3ccccc3c2=O)S1 (configuration not stated)	inactive: -20.6%
O=[As](O)(c1ccccc1Br)c1ccccc1Br	inactive: -9.38%
CC(C)C(=O)NC(Sc1ccccc1)C(Cl)(Cl)Cl (configuration not stated)	inactive: -15.8%
O=P(Nc1nccs1)(c1ccccc1)c1ccccc1	inactive: 4.77%
c1nnnn1CCn1cnnn1	inactive: -5.14%
O=P(Nc1ccccn1)(c1ccc(Br)cc1)c1ccc(Br)cc1	inactive: -2.92%
O=P(Nc1nc2ccccc2s1)(c1ccccc1)c1ccccc1	inactive: -6.01%
O=[As](O)(c1ccccc1)c1ccc(O)cc1	inactive: 2.18%
O=[N+]([O-])c1ncn(CCn2cnc([N+](=O)[O-])n2)n1	inactive: -15.4%
CC(=O)NC(SC(=S)N(C)C)C(Cl)(Cl)Cl (configuration not stated)	inactive: 8.56%
O=C(OC1CN2CCC1CC2)c1cccc(Cl)c1 (configuration not stated)	inactive: 2.3%
C(Cc1nn[nH]n1)Cc1nn[nH]n1	inactive: -1.33%
Nc1ccc([As](=O)(O)c2ccc([N+](=O)[O-])cc2)cc1	inactive: 0.15%
CCOC(=O)NC(Sc1ccccc1)C(Cl)(Cl)Cl (configuration not stated)	inactive: 5.37%
Cc1ccc(NP(=O)(Oc2cccc(C)c2)Oc2cccc(C)c2)nc1	inactive: 0.67%
c1ccc(-c2nn[nH]n2)c(-c2nn[nH]n2)c1	inactive: -4.56%
CCNC(=S)/N=C(\N)N[N+](=O)[O-]	inactive: 6.74%
O=C(NC1CCS(=O)(=O)C1)NP(=S)(Oc1ccccc1)Oc1ccccc1 (configuration not stated)	inactive: 2.62%

SMILES	inhibition
CCC(=O)N1C2C3N(C(=O)CC)C1C1N(C(=O)CC)C(C(N1C(=O)CC)N3C(=O)CC)N2C(=O)CC	inactive: -9.81%
Cc1ccc(OP(=O)(Nc2ccccn2)Oc2ccc(C)cc2)cc1	inactive: -10.5%
CC(=O)NC(SC(=S)N(CC(C)C)CC(C)C)C(Cl)(Cl)Cl (configuration not stated)	inactive: 7.56%
COC(=O)c1cc2c(s1)N=C(c1ccccc1)N(C)P2(=O)N1CCOCC1 (configuration not stated)	inactive: 10.5%
O=c1c2cc([N+](=O)[O-])ccc2[nH]c2c([N+](=O)[O-])cc([N+](=O)[O-])cc12	inactive: -3.81%
CN(C)C(=O)Oc1noc2ccccc12	inactive: 14.2%
Cc1ccccc1OP(=O)(Nc1ccccn1)Oc1ccccc1C	inactive: 5.08%
CCOc1ccc(C2=NCC(CBr)S2)cc1 (configuration not stated)	inactive: -8.74%
O=P1(Nc2nc3ccc(Cl)cc3s2)COc2ccccc2O1 (configuration not stated)	inactive: -4.89%
CC(C)(C)C(=O)NC(Sc1ccccc1)C(Cl)(Cl)Cl (configuration not stated)	inactive: -8.69%
CC(=O)Nc1ccc(Oc2c([N+](=O)[O-])cc([N+](=O)[O-])cc2[N+](=O)[O-])cc1	inactive: -7.41%
CC(=O)Nc1ccc([As](=O)(O)O)c(O)c1	inactive: 5.67%
Cc1ccc(N/C(=N/P(=O)(N2CCOCC2)N2CCOCC2)N2CCOCC2)cc1	inactive: -13.3%
NC(=O)c1cc([N+](=O)[O-])cc([N+](=O)[O-])c1N	inactive: -5.92%
CN1CCCC(OC(=O)C(c2ccccc2)c2ccccc2)C1 (configuration not stated)	inactive: -6.64%
Clc1ccc(Cl)c(NC2=NCC(CBr)S2)c1 (configuration not stated)	inactive: 2.5%
Cc1ccc(OP(=O)(Nc2nccs2)Oc2ccc(C)cc2)cc1	inactive: -0.07%
COc1ccccc1OP(=O)(Nc1ccc(C)cn1)Oc1ccccc1OC	inactive: -8.77%
O=C(NC(Sc1ccncn1)C(Cl)(Cl)Cl)c1ccccc1 (configuration not stated)	inactive: 0.46%
Oc1ccccc1CNc1ccccn1	inactive: 5.87%
Nc1cc(N)c2nonc2c1[N+](=O)[O-]	inactive: -10.3%
CC(C)CC(=O)NC(Sc1ccc(Cl)cc1)C(Cl)(Cl)Cl (configuration not stated)	inactive: -9.26%
O=P(Nc1nc2ccc(Cl)cc2s1)(c1ccccc1)c1ccccc1	inactive: -6.18%
CC(=O)Nc1ccc([As](=O)(O)O)cc1	inactive: 7.88%
O=C(O)c1ccccc1[As](=O)(O)O	inactive: 4.05%

SMILES	inhibition
Cc1ccc(NP(=O)(Oc2ccccc2F)Oc2ccccc2F)nc1	inactive: -24.5%
Cc1cc(SC(NC(=O)c2ccc(F)cc2)C(Cl)(Cl)Cl)ncn1 (configuration not stated)	inactive: -17.5%
CCOP(=O)(Nc1ccccc1)OCC	inactive: -11.8% and inactive: 14.2%
Nc1cccc2ccc([As](=O)(O)O)cc12	inactive: -1.99%
CCN(N=Nc1nonc1N)c1nonc1N	inactive: -14.6%
O=C(Nc1cc([As](=O)(O)O)ccc1O)c1ccccc1	inactive: -0.71%
O=[N+]([O-])c1ncn(CCn2ncnc2[N+](=O)[O-])n1	inactive: 1.41%
CC(C)(C)C(=O)NC(Sc1ccncn1)C(Cl)(Cl)Cl (configuration not stated)	inactive: 17.2%
O=C(O)CNc1ccc([As](=O)(O)O)cc1	inactive: -1.57%
O=[N+]([O-])c1cccc(NC2=NCC(CBr)S2)c1 (configuration not stated)	inactive: -6.75%
COc1ccc(C2=NCC(CBr)S2)cc1 (configuration not stated)	inactive: 12.4%
CCc1nc2c(n1)c1c(non1O)c1c2no[n+]1[O-]	inactive: 11.8%
O=[N+]([O-])c1cc([N+](=O)[O-])c(CCNc2ccccc2)c([N+](=O)[O-])c1	inactive: -1.93%
Cc1ccc(NP(=O)(Oc2ccccc2)Oc2ccccc2)nc1	inactive: -17.1%
O=[N+]([O-])c1cccc2n[nH]nc12	inactive: 1.5%
CC(=O)N1C2C3N(C(C)=O)C1C1N(C(C)=O)C(C(N1C(C)=O)N3C(C)=O)N2C(C)=O	inactive: 2.07%
CCN(/C(=N/P(=O)(N1CCOCC1)N1CCOCC1)N1CCOCC1)c1ccc(OC)cc1	inactive: -17.3%
C[N+]1=C2C=CC=CC=C2SC12C([N+](=O)[O-])=CC([N+](=O)[O-])=C[C-]2[N+](=O)[O-] (configuration not stated)	active: 43.9%
Nc1ccc([As](=O)(O)c2ccc(N)cc2)cc1	inactive: -4.57%
CC1CCN(C(=O)Oc2c(Cl)cc(Cl)c3cccnc23)CC1	inactive: -20.7%
CN(C)C(=O)OCCc1n(C)cc[n+]1C	inactive: -19.6%
CC(C)=N/N=C(\N)N[N+](=O)[O-]	inactive: -6.43%
